Molecular target: Cyclin-dependent kinase 5/CDK5 activator 1 (Homo sapiens, UniProt Q00535)
Type: protein-complex assay

The chains behind the UniProt entries cited, without tags or fusion partners.
UniProt Q00535, whole entry: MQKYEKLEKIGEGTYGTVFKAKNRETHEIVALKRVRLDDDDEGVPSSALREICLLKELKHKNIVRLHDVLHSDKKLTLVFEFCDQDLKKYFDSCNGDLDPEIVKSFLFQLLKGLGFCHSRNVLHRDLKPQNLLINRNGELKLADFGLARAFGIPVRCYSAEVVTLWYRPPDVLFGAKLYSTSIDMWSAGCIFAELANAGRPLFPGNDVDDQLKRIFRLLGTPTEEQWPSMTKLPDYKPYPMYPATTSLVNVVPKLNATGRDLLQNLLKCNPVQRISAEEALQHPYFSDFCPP

## COc1ccc2c(c1)[nH]c1c(C)nccc12 [HARMINE]
  IC50: > 10 µM
